The numbers were not newly measured in PMC8125740, which cites them from elsewhere.

Series [1] addresses Amyloid beta(25-35) 25-35 (Homo sapiens) (UniProt P05067).
For series [2], the target named is Amyloid beta(1-42) 1-42 (Homo sapiens) (UniProt P05067).
The target of series [3] is NMDA receptor NR1 subunit C0 region (Homo sapiens) (UniProt Q05586).
In series [4] the target is NMDA receptor NR1 subunit C1 exon (Homo sapiens) (UniProt Q05586).

In the case of Calmodulin (from UniProt P0DP23), the Kd was 1 nM in series [1], 1 nM in series [2], 87 nM in series [3] and 4 nM in series [4].

Usually Kd stands for the concentration at which binding is half-saturated.
